Source: FireProtDB

B1: Alpha-1-antitrypsin, P01009 (parent)
chain: MPSSVSWGILLLAGLCCLVPVSLAEDPQGDAAQKTDTSHHDQDHPTFNKITPNLAEFAFSLYRQLAHQSNSTNIFFSPVSIATAFAMLSLGTKADTHDEILEGLNFNLTEIPEAQIHEGFQELLRTLNQPDSQLQLTTGNGLFLSEGLKLVDKFLEDVKKLYHSEAFTVNFGDTEEAKKQINDYVEKGTQGKIVDLVKELDRDTVFALVNYIFFKGKWERPFEVKDTEEEDFHVDQVTTVKVPMMKRLGMFNIQHCKKLSSWVLLMKYLGNATAIFFLPDEGKLQHLENELTHDIITKFLENEDRRSASLHLPKLSITGTYDLKSVLGQLGITKVFSNGADLSGVTEEAPLKLSKAVHKAVLTIDEKGTEAAGAMFLEAIPMSIPPEVKFNKPFVFLMIEQNTKSPLFMGKVVNPTQK
B2: Tyrosine-protein kinase JAK1, P23458 (parent)
chain: MQYLNIKEDCNAMAFCAKMRSSKKTEVNLEAPEPGVEVIFYLSDREPLRLGSGEYTAEELCIRAAQACRISPLCHNLFALYDENTKLWYAPNRTITVDDKMSLRLHYRMRFYFTNWHGTNDNEQSVWRHSPKKQKNGYEKKKIPDATPLLDASSLEYLFAQGQYDLVKCLAPIRDPKTEQDGHDIENECLGMAVLAISHYAMMKKMQLPELPKDISYKRYIPETLNKSIRQRNLLTRMRINNVFKDFLKEFNNKTICDSSVSTHDLKVKYLATLETLTKHYGAEIFETSMLLISSENEMNWFHSNDGGNVLYYEVMVTGNLGIQWRHKPNVVSVEKEKNKLKRKKLENKHKKDEEKNKIREEWNNFSYFPEITHIVIKESVVSINKQDNKKMELKLSSHEEALSFVSLVDGYFRLTADAHHYLCTDVAPPLIVHNIQNGCHGPICTEYAINKLRQEGSEEGMYVLRWSCTDFDNILMTVTCFEKSEQVQGAQKQFKNFQIEVQKGRYSLHGSDRSFPSLGDLMSHLKKQILRTDNISFMLKRCCQPKPREISNLLVATKKAQEWQPVYPMSQLSFDRILKKDLVQGEHLGRGTRTHIYSGTLMDYKDDEGTSEEKKIKVILKVLDPSHRDISLAFFEAASMMRQVSHKHIVYLYGVCVRDVENIMVEEFVEGGPLDLFMHRKSDVLTTPWKFKVAKQLASALSYLEDKDLVHGNVCTKNLLLAREGIDSECGPFIKLSDPGIPITVLSRQECIERIPWIAPECVEDSKNLSVAADKWSFGTTLWEICYNGEIPLKDKTLIEKERFYESRCRPVTPSCKELADLMTRCMNYDPNQRPFFRAIMRDINKLEEQNPDIVSEKKPATEVDPTHFEKRFLKRIRDLGEGHFGKVELCRYDPEGDNTGEQVAVKSLKPESGGNHIADLKKEIEILRNLYHENIVKYKGICTEDGGNGIKLIMEFLPSGSLKEYLPKNKNKINLKQQLKYAVQICKGMDYLGSRQYVHRDLAARNVLVESEHQVKIGDFGLTKAIETDKEYYTVKDDRDSPVFWYAPECLMQSKFYIASDVWSFGVTLHELLTYCDSDSSPMALFLKMIGPTHGQMTVTRLVNTLKEGKRLPCPPNCPDEVYQLMRKCWEFQPSNRTSFQNLIEGFEALLK

Variants of: B1
Settings: Homo sapiens; pH 8; Thermal; Fluorescence; Tris-HCl 50 mM; NaCl 50 mM; reversible: no; structure 1QLP; whole UniProt chain shown

Variant | Tm
F75C | 57 °C

Variants of: B2
Settings: Homo sapiens; pH 8; Thermal; DSF; TRIS 20 mM; MgCl2 NaCl 1mM 500mM; reversible: Unknown; structure 4L00; whole UniProt chain shown

Variant | Tm | change of melting temperature, mutant - wild type (higher = more stable)
K622A | 53.3 °C | 13 °C
